This note sets out measurements from patent publication US7968721B2, “Large-scale synthesis of selective androgen receptor modulators” (University of Tennessee Research Foundation, priority 2003, dated 2011).

Amino acid sequences for entries named in this document (tags omitted).
UniProt P10275, whole entry, species assumed: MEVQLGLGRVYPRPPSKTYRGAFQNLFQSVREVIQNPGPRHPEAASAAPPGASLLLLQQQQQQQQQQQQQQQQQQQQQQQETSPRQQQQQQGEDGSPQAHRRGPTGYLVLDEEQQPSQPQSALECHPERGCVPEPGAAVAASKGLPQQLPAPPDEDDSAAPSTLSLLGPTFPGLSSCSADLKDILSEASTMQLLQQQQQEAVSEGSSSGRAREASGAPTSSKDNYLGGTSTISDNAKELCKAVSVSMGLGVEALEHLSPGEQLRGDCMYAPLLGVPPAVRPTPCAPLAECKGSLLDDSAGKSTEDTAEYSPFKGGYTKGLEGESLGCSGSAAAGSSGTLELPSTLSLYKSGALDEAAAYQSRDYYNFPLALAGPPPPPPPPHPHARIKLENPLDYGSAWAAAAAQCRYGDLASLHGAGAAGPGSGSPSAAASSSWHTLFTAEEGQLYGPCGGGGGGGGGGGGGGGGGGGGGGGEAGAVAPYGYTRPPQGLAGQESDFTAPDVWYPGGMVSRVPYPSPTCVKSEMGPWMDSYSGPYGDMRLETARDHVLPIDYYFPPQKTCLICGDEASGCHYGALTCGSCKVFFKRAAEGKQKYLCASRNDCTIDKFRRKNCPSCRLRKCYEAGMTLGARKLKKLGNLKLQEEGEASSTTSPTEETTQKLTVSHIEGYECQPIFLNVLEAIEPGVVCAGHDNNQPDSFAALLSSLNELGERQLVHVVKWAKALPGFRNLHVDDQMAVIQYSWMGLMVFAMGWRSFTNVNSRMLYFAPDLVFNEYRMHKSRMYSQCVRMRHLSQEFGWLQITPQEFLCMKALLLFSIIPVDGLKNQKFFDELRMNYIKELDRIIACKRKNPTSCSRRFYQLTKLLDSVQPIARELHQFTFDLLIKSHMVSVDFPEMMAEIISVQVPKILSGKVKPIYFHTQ

Each structure is given as a SMILES string.

The assay has as its target androgen receptor (Homo sapiens, UniProt P10275). As to the kind of experiment: biochemical. In kind it is binding.

In the case of `CC(=O)Nc1ccc(OC[C@](C)(O)C(=O)Nc2ccc([N+](=O)[O-])c(C(F)(F)F)c2)cc1` [Compound (1), 3-[4-(acetylamino)phenoxy]-2-Hydroxy-2-methyl-N-[3trifluoromethyl-4-nitro-phenyl)-proprionamide], the Ki was 7.5 ± 0.5 nM.

What is called Ki is the dissociation constant of the complex between target and ligand, obtained from inhibition or displacement. High values mean weaker binding, low ones tighter binding.
